We go through one substance from US7803381B2, “Retro-inverso gonadotropin-releasing hormone peptide and vaccine composition” (Shimoda Biotech (Pty) Ltd., priority 2002, dated 2010).

The chains behind the UniProt entries cited, without tags or fusion partners. Where a name states a change or a piece, a line headed by the entry shows the natural chain unless it says otherwise.
UniProt P01148: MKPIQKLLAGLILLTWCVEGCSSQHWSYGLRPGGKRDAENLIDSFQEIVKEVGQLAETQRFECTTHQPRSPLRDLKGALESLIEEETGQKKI

The assay has as its target T1, GnRH (Homo sapiens, UniProt P01148).
T1 construct: made in house; host or cells: chemical solid-phase synthesis (University of Cape Town); receptor expressed in transfected COS-1 cells
Put plainly: Antiserum/antibody inhibition of GnRH stimulated IP accumulation in COS-1 cells transfected with human GnRH receptor. In kind it is cell-based, mammalian. To be noted: 0.3 nM GnRH; read-out: antibody concentration inhibiting 50% of GnRH-stimulated IP accumulation. As for the experimental part:
The transfected COS-1 cells (2×10^5 cells/well) were incubated overnight in 0.5 ml Medium 199 (Life Technologies Inc.) with antibiotics and myo-[2-^3H] inositol (1 μCi/well, Amersham Pharmacia Biotech) as previously described. The labelled cells were incubated with various concentrations of GnRH-analogs for one hour at 37° C. in the presence of LiCl as described. Aspirating the medium and addition of 10 mM formic acid (1 ml/well) terminated the incubation. Inositol phosphates separated from the formic acid extract on DOWEX-1 ion exchange columns and eluted into scintillation liquid (Quicksafe, Zinsser Analytical, Frankfurt, Germany) and the radioactivity was counted. […] Serum from the same rabbits before immunisation was also tested. […] After one hour the incubation was terminated with formic acid and inositol phosphates were separated and counted as described. […] The mixture was added to labelled cells, and the inhibition of IP production was calculated. […] Purified anti-RI-GnRH antibodies were tested for their ability to discriminate among GnRH, [[…]]GnRH, and GnRH II. […] Stimulating with these concentrations [half-maximal effective concentrations (EC50)] in the absence of antibody produced similar levels of IP counts. […] The mixture was added to labelled cells and the inhibition of IP production calculated as described. […]

For glycine, the IC50 amounted to 2.2 nM.
